{
  "sequences": {"note": "Amino acid sequences for entries named in this document (tags omitted).", "UniProt P05177, whole entry": "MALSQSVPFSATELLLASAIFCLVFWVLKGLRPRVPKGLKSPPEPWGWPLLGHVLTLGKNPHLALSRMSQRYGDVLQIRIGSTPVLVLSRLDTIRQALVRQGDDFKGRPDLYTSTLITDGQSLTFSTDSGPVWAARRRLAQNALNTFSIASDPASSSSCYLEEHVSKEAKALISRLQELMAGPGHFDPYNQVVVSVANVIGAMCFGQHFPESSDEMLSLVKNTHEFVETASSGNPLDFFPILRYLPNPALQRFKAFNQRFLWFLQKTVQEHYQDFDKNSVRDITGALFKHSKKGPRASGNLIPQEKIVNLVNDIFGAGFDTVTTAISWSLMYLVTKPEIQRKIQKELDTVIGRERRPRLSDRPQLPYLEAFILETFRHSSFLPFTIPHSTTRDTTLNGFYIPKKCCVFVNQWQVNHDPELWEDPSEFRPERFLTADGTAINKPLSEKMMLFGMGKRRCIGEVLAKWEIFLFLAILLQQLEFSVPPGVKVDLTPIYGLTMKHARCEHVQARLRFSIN"},
  "source": "paper PMC9243172",
  "about": "(Heliyon, 2022)",
  "target": "CYP1A2 (Homo sapiens, UniProt P05177)",
  "details": "HLMs; pre-incubation 0–20 min",
  "data": [
    {"compound": "O=c1cc(-c2ccccc2)oc2c1ccc1ccccc12", "note": "[α-Naphthoflavone, α-naphthoflavone]", "values": [
      {"measurement": "Time dependency of CYP1A2 inhibition", "result": "time-dependent manner"}
    ]}
  ]
}
